Data on one compound can be found in ChEMBL document CHEMBL1153342 (J Med Chem, 2009).

Sequences of proteins named here, by UniProt entry; tags and fusion partners are left off. A change or cut given only in a name is not applied to a line headed by its entry.
UniProt Q9P1W9: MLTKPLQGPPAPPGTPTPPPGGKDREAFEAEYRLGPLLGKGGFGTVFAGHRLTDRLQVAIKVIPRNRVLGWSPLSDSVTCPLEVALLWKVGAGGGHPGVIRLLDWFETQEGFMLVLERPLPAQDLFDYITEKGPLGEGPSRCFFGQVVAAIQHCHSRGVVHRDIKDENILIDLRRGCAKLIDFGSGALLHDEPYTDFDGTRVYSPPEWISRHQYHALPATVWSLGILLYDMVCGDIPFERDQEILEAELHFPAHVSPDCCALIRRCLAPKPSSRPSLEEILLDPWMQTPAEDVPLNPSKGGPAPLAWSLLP

The experiment addresses Serine/threonine-protein kinase pim-2 (Homo sapiens, UniProt Q9P1W9). The experiment is described as follows: Inhibition of Pim2 in presence of 1 uM ATP.

On to `N[C@H]1CC[C@H](Nc2cncc(-c3cccc(/C=C/C(=O)O)c3)n2)CC1`, for which the IC50 came out at 12 nM.
